Tested on: ESC Cell Line
Assay: Flow cytometry of cells at the end of stage 3, differentiated in basal medium with different serum albumin
Assay type: cell-based
Settings: FIG. 3B

**Q.** For “HSA: human serum albumin, exemplary component of the basal culture medium”, which “effect of HSA concentration on percentage of Pdx1+ and CDX2+ cells” value is on record?
**A.** concentration-dependent effect

**Q.** What about the “percentage of off-target CDX2-positive (CDX2+) cells” value (compared to medium containing BSA or No SA) of the same substance?
**A.** significantly decreased

**Q.** What about the “percentage of Pdx1-positive cells (Pdx1+)” value (compared to medium containing BSA or no serum albumin (No SA)) of the same substance?
**A.** significantly increased
